Test results as given in ChEMBL document CHEMBL1938241, “Design, synthesis, and activity evaluation of broad-spectrum small-molecule inhibitors of anti-apoptotic Bcl-2 family proteins: characteristics of broad-spectrum protein binding and its effects on anti-tumor activity” (Bioorg Med Chem Lett, 2012).

Chains of the proteins cited; added tags and fusions are not shown.
UniProt Q07820, whole entry: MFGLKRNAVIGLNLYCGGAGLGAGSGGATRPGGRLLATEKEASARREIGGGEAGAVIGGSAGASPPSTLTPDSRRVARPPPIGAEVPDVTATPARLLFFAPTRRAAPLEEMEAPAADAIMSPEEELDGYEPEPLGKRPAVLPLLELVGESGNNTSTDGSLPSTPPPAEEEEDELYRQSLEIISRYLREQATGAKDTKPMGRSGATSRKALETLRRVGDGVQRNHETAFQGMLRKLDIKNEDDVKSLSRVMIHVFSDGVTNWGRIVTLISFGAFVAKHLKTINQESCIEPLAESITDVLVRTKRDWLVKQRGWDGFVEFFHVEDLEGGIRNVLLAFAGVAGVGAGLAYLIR

Target: Induced myeloid leukemia cell differentiation protein Mcl-1 (Homo sapiens, UniProt Q07820)
Test: Binding affinity to Mcl-1 by competitive fluorescence polarization assay

Ki: > 100 µM
SMILES: CN(C)CC[C@H](CSc1ccccc1)Nc1ccc(S(=O)(=O)NC(=O)c2ccc(N3CCN(Cc4ccccc4-c4ccc(Cl)cc4)CC3)cc2)cc1[N+](=O)[O-] [ABT 737]
